Results reported in patent US20030082641A1 (SYNAPTIC PHARMACEUTICAL, published 2003).
Each block holds one molecule with its values, some of them ahead of it.

Protein sequences, listed by entry. Tags and fused reporters are not part of them. Lines headed by an entry give the natural chain unless they say otherwise; changes in a name come on top.
UniProt P07480: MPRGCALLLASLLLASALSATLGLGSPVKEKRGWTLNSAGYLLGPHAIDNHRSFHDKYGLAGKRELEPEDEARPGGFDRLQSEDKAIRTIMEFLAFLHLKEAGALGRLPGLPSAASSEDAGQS

Experiments:
human GALR3 receptor [1] = molecular target: T1, human GALR3 receptor (human, UniProt O60755 1-368); assay: displacement of porcine 125I-galanin; human GALR3 in LMTK- #8
T1 sequence: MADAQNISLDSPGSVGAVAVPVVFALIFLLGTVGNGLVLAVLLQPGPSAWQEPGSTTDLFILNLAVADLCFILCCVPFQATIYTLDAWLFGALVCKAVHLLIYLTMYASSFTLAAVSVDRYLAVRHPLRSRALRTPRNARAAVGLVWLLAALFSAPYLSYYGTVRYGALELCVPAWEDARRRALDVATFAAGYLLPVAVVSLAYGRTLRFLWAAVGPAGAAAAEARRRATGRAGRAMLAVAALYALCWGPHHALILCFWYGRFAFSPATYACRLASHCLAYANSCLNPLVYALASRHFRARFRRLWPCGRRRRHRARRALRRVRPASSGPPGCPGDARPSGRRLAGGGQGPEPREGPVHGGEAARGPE

human GALR3 receptor [2] = molecular target: T1, human GALR3 receptor; assay: displacement of porcine 125I-galanin; COS-7 membranes, transient
rat GALR3 receptor [3] = molecular target: T2, rat GALR3 receptor (rat, UniProt O88626 1-370); assay: displacement of porcine 125I-galanin; rat GALR3 in 293 #105
T2 construct: also called rGALR3; rGalR3
T2 chain: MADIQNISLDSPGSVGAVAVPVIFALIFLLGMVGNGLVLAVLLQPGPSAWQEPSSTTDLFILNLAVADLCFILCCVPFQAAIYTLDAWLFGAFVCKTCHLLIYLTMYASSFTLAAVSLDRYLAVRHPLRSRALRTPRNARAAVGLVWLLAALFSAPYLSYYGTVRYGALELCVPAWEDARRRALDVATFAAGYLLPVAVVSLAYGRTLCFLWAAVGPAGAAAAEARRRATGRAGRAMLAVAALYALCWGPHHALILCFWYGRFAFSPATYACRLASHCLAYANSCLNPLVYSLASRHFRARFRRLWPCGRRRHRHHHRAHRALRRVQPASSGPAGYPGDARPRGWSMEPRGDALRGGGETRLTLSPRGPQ

rat GALR3 receptor [4] = molecular target: T2, rat GALR3 receptor; assay: displacement of porcine 125I-galanin; 293-rGalR3-105 membranes, stable
human GALR3 receptor [5] = molecular target: T1, human GALR3 receptor; assay: saturation binding, membranes of stable L-hGalR3-228 LM(tk-) cells
human GALR3 receptor [6] = molecular target: T1, human GALR3 receptor; assay: cell-based or functional assay
human GALR3 receptor [7] = molecular target: T1, human GALR3 receptor; assay: cell-based or functional assay; remark: listed apart in the source

Molecule: (3-iodo-L-Tyr9)-(3-iodo-L-Tyr26)-galanin (peptide)
Ki (human GALR3 receptor [1]): 1.43 nM

Molecule: M35 (peptide)
Ki (human GALR3 receptor [2]): 19 nM

Molecule: galantide (peptide)
Ki (rat GALR3 receptor [3]): 11.5 nM
Ki (rat GALR3 receptor [4]): 7.6 nM

Other lines, results leading:

Kd (human GALR3 receptor [5]): 2.57 nM
Molecule: GWTLNSAGYLLGPHAIDNHRSFHDKYGLA (peptide, UniProt P07480 33-61, looked up, 125I label (position not given)) [porcine ^125I-galanin]

Oocyte EC50, stimulation of GIRKs (human GALR3 receptor [6]): 222 nM
Molecule: GWTLNSAGYLLGPHAIDNHRSFHDKYGLA (peptide, UniProt P07480 33-61, looked up) [porcine galanin]

EC50, GIRK (human GALR3 receptor [7]): 7340 nM
Molecule: GWTLNSAGYLLGPHAVGNHRSFSDKNGLTS (peptide, UniProt P22466 33-62, looked up) [Human galanin]
